Screening results as filed in PubChem.
HCMV UL50-53 inh – disrupts HCMV UL50-UL53 complex binding | HTRF UL50-UL53 interaction, normalized percent inhibition | inhibition, % (concentration not given with the values) | 190,000 tested, 0.15% active; in the data active = inhibition above about 27%, passing the limit was not always enough
GIV Gai3 FP – GIV-Galpha-i interaction inhibition. AID 1224905. actives 0.42% (n = 210,000). percent of control (FP), % (test concentration not listed). Galpha-i3/FITC-GIV peptide fluorescence polarization, 90 min; stronger effect = lower value; scaled: aluminum fluoride 0%, vehicle 100%;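 active = replicate mean at 85% of control or lower, very high polarization wells dropped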;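 also: wells of about 15 µL received 100 nL stock; the first replicate is given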
GIV-Gai FP conf – confirmation of inhibitors of GIV binding to rat Galpha-i3. shares compounds with GIV Gai3 FP. fluorescence polarization, mP at 100 µM. 580 tested, 38% active. FITC-GIV peptide binding to Galphai3, fluorescence polarization; hits give low values;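 active = inhibition score of 15 or more, meaning 100 minus mean polarization as percent of control over three replicates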;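 note: lower mP means peptide displaced from Galphai3 so more inhibition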
GIV Gai AS conf – GIV-Galpha-i3 inhibition, AlphaScreen confirmation. shares compounds with GIV Gai3 FP. AlphaScreen Galphai3-GIV binding, purified proteins, 90 min; hits give low values. AlphaScreen counts at 100 µM. 580 tested, 39% active;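 active = inhibition score at or above a set limit, where the score is 100 minus the three-replicate mean percent of control signal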
Of the large screens only hits and unclear results are named; the others gave an inactive call (follow-up assays come after a bar, where they were run). This is a sample that favours compounds with a hit; in the whole collection about 0.43% have one here.

CC(C)(C)OC(=O)N1Cc2[nH]cnc2CC1C(=O)O (configuration not stated)	none
C=CCN(CC=C)Cc1ccc(C(=O)OC)o1	GIV Gai3 FP 80.5 | GIV-Gai FP conf inactive | GIV Gai AS conf inactive
COC(=O)c1ccc(CC#N)o1	none
CN(C)/C=C/C=C/c1cc(=O)cc(/C=C/C=C/N(C)C)o1	HCMV UL50-53 inh 66.9, GIV Gai3 FP 5.8 | GIV-Gai FP conf 25.3 | GIV Gai AS conf 2403
O=C(NC1CCN(Cc2ccccc2)CC1)C1CCN(c2cnccn2)CC1	GIV Gai3 FP 66.6 | GIV-Gai FP conf inactive | GIV Gai AS conf inactive
O=C(NCCc1ccccc1)C1CCN(c2cnccn2)CC1	none
Cc1ccc(S(=O)c2snnc2-c2ccc(Cl)cc2)cc1 (configuration not stated)	none
COC(=O)c1c(N)c(C#N)c2n1CCCC2	none
COC(=O)c1c(N)c(C#N)c2n1CCC2	GIV Gai3 FP 80.1 (no result: HCMV UL50-53 inh) | GIV-Gai FP conf 49 | GIV Gai AS conf 20250
COCCCN1C(=S)NC2c3cccc(OC)c3OC1(C)C2C(=O)N(C)C (configuration not stated)	none
Oc1ccccc1C(Nc1ccccn1)c1ccc2cccnc2c1O (configuration not stated)	none (no result: GIV Gai3 FP)
Oc1ccc2ncccc2c1C(Nc1ccccn1)c1ccco1 (configuration not stated)	GIV Gai3 FP 78.5 | GIV-Gai FP conf inactive | GIV Gai AS conf 5282
C/C(=N/O)c1ccc(N)cc1	none
O=C(c1cnn2cc(Br)cnc12)N1CCCc2ccccc21	none
C[C@H](O)C(=O)C1=Nc2c(nc(N)[nH]c2=O)NC1	GIV Gai3 FP 72.8 | GIV-Gai FP conf inactive | GIV Gai AS conf 29102
CC(O)C(O)[C@H]1CNc2nc(N)[nH]c(=O)c2N1 (some centres not stated)	none
O=C1NC(=O)N(c2ccc(Cl)cc2)C(=O)/C1=C\c1cc2c(cc1Br)OCO2	none (no result: HCMV UL50-53 inh)
CCCCSc1nnc2c3ccccc3n(C)c2n1	none (no result: HCMV UL50-53 inh)
COc1ccc(-c2c(C#N)c(N)n3c(nc4ccccc43)c2C#N)cc1OC	GIV Gai3 FP 83.2 | GIV-Gai FP conf inactive | GIV Gai AS conf inactive
COc1ccc(-c2c(C#N)c(N)n3c(nc4ccccc43)c2C#N)cc1O	none (no result: HCMV UL50-53 inh)
O=C(OCc1cn2cc(Cl)ccc2n1)C1=NN(c2ccccc2)C(=O)CC1	none (no result: GIV Gai3 FP)
Cc1nc(N2CCCC2)nc2oc(-c3ccccc3)nc12	none
Cc1nc(N2CCN(c3ccccn3)CC2)nc2oc(-c3ccccc3)nc12	none | GIV-Gai FP conf inactive | GIV Gai AS conf inactive
CC(C)c1cc(Nc2ccc(N(C)C)cc2)n2nc(-c3cccnc3)nc2n1	none
CCOC(=O)c1c(CSc2nc(C)c(C)c(C)c2C#N)n(C)c2cc(Br)c(OC(C)=O)cc12	none (no result: HCMV UL50-53 inh)
O=C(O)C1Nc2c(I)cccc2C2C=CCC12 (configuration not stated)	GIV Gai3 FP 42.9 | GIV-Gai FP conf 36.4 | GIV Gai AS conf 1672
CC(=O)Nc1ccc2c(c1)C1C=CCC1C(C(=O)O)N2 (configuration not stated)	none
CCOC(=O)c1c(-c2ccccc2)cn2ccccc12	none
CCOC(=O)c1c(-c2ccccc2)c[nH]c1N	GIV Gai3 FP 59.8 | GIV-Gai FP conf 38.6 | GIV Gai AS conf 19838
CCOc1cc(C#N)c(NC(=O)c2ccc(OC)c(S(=O)(=O)N3CCC(C)CC3)c2)cc1OCC	none
CCCc1cc(C2CCCN2Cc2ccc(F)c(F)c2)no1 (configuration not stated)	none (no result: HCMV UL50-53 inh)
COC(=O)c1[nH]c(C)c(C(=O)OC)c1C	none (no result: GIV Gai3 FP)
COC(=O)c1[nH]c(C(=O)OC)c(O)c1O	GIV Gai3 FP 59.1 | GIV-Gai FP conf inactive | GIV Gai AS conf inactive
CC(=O)NC1C(OCc2ccccc2)OC(CO)C(O)C1O (configuration not stated)	none (no result: HCMV UL50-53 inh)
O=C(Nc1cccc(F)c1F)C1CCN(c2ncccn2)CC1	none | GIV-Gai FP conf inactive | GIV Gai AS conf inactive
Cc1ccc(NC(=O)C2CCN(c3ncccn3)CC2)cc1F	none
COC(=O)c1cc(S(=O)(=O)N2CCCN(S(=O)(=O)c3ccc(Cl)c(C(=O)OC)c3)CC2)ccc1Cl	none (no result: HCMV UL50-53 inh)
CCCC(C)NC(=O)c1cnc2sc(C)c(C)n2c1=O (configuration not stated)	none
Cn1cc2c3c(cccc31)CN(C(=O)NCC1CCCO1)CC2 (configuration not stated)	none (no result: HCMV UL50-53 inh)
COCCn1cc2c3c(cccc31)CN(C(=O)NCC1CCCO1)CC2 (configuration not stated)	GIV Gai3 FP 81.3 (no result: HCMV UL50-53 inh) | GIV-Gai FP conf 60.2 | GIV Gai AS conf inactive
COc1ccc2oc(=O)cc(CN3CCN(c4cccc(C)c4)C(C)C3)c2c1 (configuration not stated)	none
